# Apparent affinities of Ab-95 variants for a coronavirus HR2 peptide

The measurements come from Engelhart et al. 2022 (doi:10.1038/s41597-022-01779-4) through the FLAb antibody collection.

Target peptide (SARS-CoV-2 spike, HR2 region): PDVDLGDISGINAS

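Phage display of a naive human antibody library on the peptide gave the parent. AAYL52 was designed without a model: most single CDR substitutions and a random sample of double and triple ones. In AlphaSeq, yeast of one mating type display the scFv and yeast of the other type display the target. Mating (16 h, 30 °C) was followed by selection of diploids and sequencing of their barcodes. Read counts were normalised to the haploid input and turned into Kd by a linear fit to BCL2-family pairs of known affinity, for each replicate. The assay was run in three technical replicates.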

Parent scFv Ab-95: VH joined to VL by three GGGGS repeats. Changes lie in the light chain CDRs alone.
VH: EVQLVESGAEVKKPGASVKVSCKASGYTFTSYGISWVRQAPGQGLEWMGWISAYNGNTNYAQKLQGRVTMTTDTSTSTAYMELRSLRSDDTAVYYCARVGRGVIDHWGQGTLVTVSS
VL: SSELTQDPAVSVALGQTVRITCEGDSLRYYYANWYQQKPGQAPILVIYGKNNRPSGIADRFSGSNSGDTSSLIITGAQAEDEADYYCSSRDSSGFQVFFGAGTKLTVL

Changes read parent residue, position, new residue, counted from the first residue of the VL shown.
Affinities are written as log10 Kd with Kd in nM; a lower number is a better binder.
A pair that was not seen in that replicate is written "ND"; this usually means weak binding, but a binder can also be missed.
Three control strains display no target. For library AAYL52, 28% of the pairings with them gave a signal, with a median of 3.91 and one signal in twenty below 2.90, so weak values seen in few replicates may be background. For each scFv, signals with the empty controls are counted beside the result, with their mean in brackets.
Parent in this assay: reference entry 2.31, copy in this library 2.25.

changes | replicates, log10 nM | signal with controls
R90S/F95T/V97A | ND ND ND | 1/9 (4.00)
Y30E/N33Y/D91R | 3.55 5.25 ND | 4/9 (3.55)
Y31F/A32I/S55T | ND ND ND | 2/9 (3.84)
Y30V/P54R/S88I | ND ND ND | 1/9 (2.86)
K50R/S55G | 2.75 2.49 2.25 | 4/9 (4.42)
Y30E/N33K/R53L | 1.68 1.32 1.14 | 3/9 (3.74)
R28E/Y29K/G49H | 3.08 2.95 3.91 | 1/9 (3.56)
G24Q/Y31R/N51F | ND ND ND | 2/9 (3.27)
D25A/N52D/G94N | ND ND ND | 3/9 (3.85)
Y31M/A32Q/R90L | 4.74 ND 3.37 | 2/9 (3.26)
Y31G/R53I/S89F | 3.34 3.20 ND | 1/9 (3.37)
S92M/S93K/F98V | ND ND ND | 2/9 (3.19)
Y31L/S55Y/S92H | 2.61 3.49 2.96 | 2/9 (4.04)
R28S/Y31K/R90Q | ND ND ND | 0/9
N33G/R90G/Q96T | ND ND ND | 2/9 (3.59)
Y31C/V97E/F98P | 3.44 3.58 2.91 | 5/9 (4.02)
D25K/D91G | 3.53 3.53 3.12 | 4/9 (4.06)
Y30H/Q96V | 2.56 2.34 1.73 | 3/9 (4.18)
G49M/S92A/V97W | ND ND ND | 2/9 (4.25)
P54E/S55E/S88A | 2.52 2.64 1.95 | 4/9 (3.28)
R28P/N52P/V97A | ND 3.78 ND | 2/9 (3.97)
Y29I/S88P/S89E | 3.31 4.52 3.88 | 5/9 (4.17)
D25G/R90E/D91V | ND ND ND | 1/9 (3.02)
Y31S/N33K/G49R | ND 4.93 4.10 | 3/9 (3.79)
S55F/D91N/V97R | 3.65 3.57 3.50 | 1/9 (5.04)
E23L/N52I/S55G | 2.42 2.43 2.26 | 3/9 (4.18)
D25V/S26F/A32E | ND ND ND | 2/9 (3.93)
R28A/A32E/G94F | 4.82 3.63 4.25 | 6/9 (3.95)
G49D/P54K/S88M | 2.65 2.78 2.47 | 3/9 (4.10)
A32L/S55A/D91L | 3.68 4.34 3.93 | 1/9 (4.19)
D25I/S88G/S89V | 2.52 2.63 2.28 | 1/9 (4.53)
L27G/N33K/N51E | 3.93 ND ND | 2/9 (3.53)
D25I/S88M/R90F | ND ND 4.59 | 3/9 (4.00)
S26D/P54Y | ND 4.06 ND | 0/9
R28P/D91K/Q96M | 2.54 2.35 1.91 | 3/9 (4.55)
R28S/A32S/R90W | 2.97 2.57 2.70 | 4/9 (4.06)
S26N/K50Y/S93E | ND ND 4.54 | 1/9 (3.60)
Y29P/R90F/F95K | 2.18 2.61 1.49 | 0/9
R90N/S93M/Q96W | 4.27 3.03 3.95 | 2/9 (4.03)
G24Q/S26M/R28E | ND ND ND | 1/9 (3.34)
Y31L/S93A/F95T | 2.79 2.38 1.98 | 2/9 (3.81)
S26H/N52G/P54V | 3.59 3.39 2.89 | 3/9 (3.85)

A selection of 5 entries from above:

changes | replicates, log10 nM | signal with controls
R90S/F95T/V97A | ND ND ND | 1/9 (4.00)
R28P/D91K/Q96M | 2.54 2.35 1.91 | 3/9 (4.55)
G24Q/S26M/R28E | ND ND ND | 1/9 (3.34)
L27G/N33K/N51E | 3.93 ND ND | 2/9 (3.53)
E23L/N52I/S55G | 2.42 2.43 2.26 | 3/9 (4.18)